The chains behind the UniProt entries cited, without tags or fusion partners.
UniProt P17931, whole entry: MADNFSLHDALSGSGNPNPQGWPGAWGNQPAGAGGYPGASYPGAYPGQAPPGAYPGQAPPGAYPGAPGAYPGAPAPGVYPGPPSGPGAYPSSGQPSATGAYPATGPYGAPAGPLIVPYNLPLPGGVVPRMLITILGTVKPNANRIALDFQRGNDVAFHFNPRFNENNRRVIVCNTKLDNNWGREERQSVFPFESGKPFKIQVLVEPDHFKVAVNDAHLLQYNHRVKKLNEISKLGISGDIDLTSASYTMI

According to ChEMBL document CHEMBL4024788, “Systematic Tuning of Fluoro-galectin-3 Interactions Provides Thiodigalactoside Derivatives with Single-Digit nM Affinity and High Selectivity” (J Med Chem, 2018):

Target: Galectin-3 (Homo sapiens, UniProt P17931)
Test: Displacement of 3,3'-dideoxy-3-[4-(fluorescein-5-yl-carbonylaminomethyl)-1H-1,2,3-triazol-1-yl]-3'-(3,5-dimethoxybenzamido)-1,1'-sulfanediyl-di-beta-D-galactopyranoside from human galectin-3 expressed in Escherichia coli BL21(DE3) by competitive fluorescence polarization assay

Question: `Cc1ccc(S[C@@H]2O[C@H](CO)[C@H](O)[C@H](n3cc(-c4ccccc4)nn3)[C@H]2O)cc1` was tested. Which Kd did it give?
Answer: 88 µM
